The results in this text go back to PMC6504579 (Journal of immunology (Baltimore, Md. : 1950), 2019).

The format of this series is in vitro ADME, human. To be noted: paired CD4 T cell cytosolic extracts, 37 °C, pH 7.4, LC-MS/MS.

Molecules are shown by their SMILES.

As to `CC[C@H](C)[C@H](NC(=O)[C@@H](NC(=O)[C@H](CCC(=O)O)NC(=O)[C@@H]1CCCN1C(=O)[C@H](CO)NC(=O)[C@H](Cc1ccccc1)NC(=O)[C@H](C)NC(=O)[C@H](CCCCN)NC(=O)[C@H](CCC(=O)O)NC(=O)[C@H](CCC(=O)O)NC(=O)[C@@H](NC(=O)[C@@H](NC(=O)[C@@H](N)CCCCN)C(C)C)C(C)C)C(C)C)C(=O)N1CCC[C@H]1C(=O)N[C@@H](CCSC)C(=O)N[C@@H](Cc1ccccc1)C(=O)N[C@@H](CO)C(=O)N[C@@H](C)C(=O)N[C@@H](CC(C)C)C(=O)O` [5-KF11–3], the “degradation rate of substrate in CD3/CD28-stimulated vs non-stimulated extracts” value was “faster degradation rates”.
